Apparent affinities of Ab-14 variants for a coronavirus HR2 peptide

Target: peptide PDVDLGDISGINAS, taken from heptad repeat 2 (HR2) of SARS-CoV-2 spike.

Ab-14 is the parent antibody, in scFv form: VH, then the linker GGGGSGGGGSGGGGS, then VL. The heavy chain is unchanged in all variants.
VH: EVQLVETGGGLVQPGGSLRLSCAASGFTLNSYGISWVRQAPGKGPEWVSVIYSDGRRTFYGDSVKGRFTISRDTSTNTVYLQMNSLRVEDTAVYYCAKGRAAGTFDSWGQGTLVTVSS
VL: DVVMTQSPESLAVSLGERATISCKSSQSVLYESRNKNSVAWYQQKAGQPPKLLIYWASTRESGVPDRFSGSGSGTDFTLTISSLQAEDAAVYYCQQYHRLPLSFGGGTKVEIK

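Phage display of a naive human antibody library on the peptide gave the parent. This is the validation round: designs drawn from the data on random variants, tested in the same kind of assay. Group labels follow the data file (Ctrl: baseline library sampled from a position-specific scoring matrix, with some repeated check sequences; Rand: our label for a block that the file lists under HC and that is probably the random mutants of the ten best first-round binders; En: ensemble of fine-tuned language models; GP: Gaussian process model; HC: hill climbing; Gen: genetic algorithm; Gibbs: Gibbs sampling; a sequence that several methods proposed may carry one label only). AlphaSeq pools MATa yeast showing the antibodies with MATalpha yeast showing the peptide. Pairs that bind mate more often; barcode pairs of the diploids are counted by sequencing. Scores were corrected for input abundance and mapped to Kd with protein pairs of known affinity run in the same pool. There are six technical replicates.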

Each variant is given by its three light chain CDRs, as the data file delimits them; those of the parent are KSSQSVLYESRNKNSVA, WASTRES, QQYHRLPLS. Affinities are written as log10 Kd with Kd in nM; a lower number is a better binder. Replicates are averaged; those with no signal do not enter the mean. A pair that was not seen in any replicate is written "nd"; this usually means weak binding, but a binder can also be missed. Of ten entries with the parent sequence, four were seen in most replicates (averages 0.34 to 2.37), three in one and three in none, so single entries are noisy. A sequence measured in both rounds can read differently, since the two assays cover different ranges. Empty control strains, which show no peptide, gave a signal in 4% of pairings with all light chain designs; the median was 2.64 and 95% of these signals were weaker than 1.59. No background was subtracted. The control count says in how many pairings with the empty strains this scFv gave a signal. The authors averaged sequences with at least three values out of six and counted those with two or fewer as poor binders.

Read-out 0.20 (6 of 6 replicates; controls 0 of 18), from KIGFVTNGISRNKNSVA | EQSTRES | QQYNRLPLS [En_HC].
Read-out -0.25 (6 of 6 replicates; controls 1 of 18), from KFSQSGLYESRNKNSVA | DASTRES | QQYHRLPLS [GP_Gen].
Read-out -0.10 (6 of 6 replicates; controls 0 of 18), from KVSQSFLYEQRNKNSVA | NASTRES | QQYHRLPLS [GP_Gen].
Read-out 0.19 (6 of 6 replicates; controls 1 of 18), from KLRQSTLYESRNPNSVA | NASTRES | QQYHRLPLS [GP_HC].
Read-out 0.97 (6 of 6 replicates; controls 2 of 18), from HMSALTLSGMYHRNSVA | QMTTREN | QQYDHLPLS [En_Gen].
Read-out 2.06 (6 of 6 replicates; controls 2 of 18), from KVTTNLEHQAQRDNSIA | EADMVAA | QDYMRLPLI [En_Gibbs].
Read-out 1.24 (4 of 6 replicates; controls 0 of 18), from KLTMMFQHTSKNTNNIA | ERSTREE | QQYHHLPLS [En_HC].
Read-out 1.29 (6 of 6 replicates; controls 2 of 18), from KSSQSVLYESRNKNSVA | QASTRES | QLYHRLPLS [Ctrl].
Read-out 0.23 (6 of 6 replicates; controls 0 of 18), from KFDQEWWYESRNKNSVA | MASQRCS | QQYHRLPLS [GP_Gibbs].
Read-out 0.09 (6 of 6 replicates; controls 2 of 18), from KLSQSWLYLSRNANSVA | NASQREE | QQYHRLPLS [GP_Gibbs].
Read-out 0.23 (6 of 6 replicates; controls 0 of 18), from KSSQSWLYESRNWNSVA | GASTRES | QQYHRLPLS [Rand].
Read-out -0.33 (6 of 6 replicates; controls 2 of 18), from KISCSEYYGDRNKMSVA | DASQRLS | QQYHRLPLS [GP_Gibbs].
Read-out 1.15 (6 of 6 replicates; controls 1 of 18), from HITYGMNVAGRHSSSIA | QAEERAK | QQYDRLPLI [En_Gen].
Read-out 2.15 (5 of 6 replicates; controls 0 of 18), from VIGEMYGNMVMKHSSIA | DNTTRQD | QQYDRLPLS [En_Gen].
Read-out nd (0 of 6 replicates; controls 0 of 18), from RMSVFMLTDENVWYSIA | NSAATRT | QQYQRLPLS [En_Gibbs].
Read-out 2.25 (6 of 6 replicates; controls 1 of 18), from KSSQSVLYESRNKNSVA | WASTRET | QQYHRLPLS [Ctrl].
Read-out nd (0 of 6 replicates; controls 0 of 18), from KSSQSVLIESRNKNSVA | WASTREE | QQTHRLPLS [Ctrl].
Read-out 2.74 (1 of 6 replicates; controls 0 of 18), from KYSQSVLYESRNKNSVA | HASTREA | QQYHRSPLS [Ctrl].
Read-out 1.47 (5 of 6 replicates; controls 0 of 18), from MLYGLSASMSKNVNNVA | EMTTREV | QQYDRLPLV [En_Gen].
Read-out 0.83 (6 of 6 replicates; controls 1 of 18), from SFSQQVLYESVHKNNVA | QTSTREE | QQYDHLPLS [En_HC].
Read-out 0.54 (6 of 6 replicates; controls 0 of 18), from KFVMSWGYESRNKNAVA | HASQRCD | QQYHRLPLS [GP_Gibbs].
Read-out 0.04 (6 of 6 replicates; controls 0 of 18), from KWSQSFLYESRNVNSVA | GASTRDS | QQYHRLPLS [GP_HC].
Read-out 0.19 (6 of 6 replicates; controls 6 of 18), from KLQSLEQYESRNKNNVA | SASTRYS | QQYHRLPLS [GP_Gibbs].
Read-out -0.25 (6 of 6 replicates; controls 1 of 18), from KFSQSVLYEDRNKNSVA | NASQRES | QQYHRLPLS [GP_Gen].
Read-out 1.10 (6 of 6 replicates; controls 0 of 18), from QLGKNQDGDTLSQNAIA | HDALRVD | QQYFRLPLL [En_Gibbs].
Read-out -0.41 (6 of 6 replicates; controls 0 of 18), from KLSQSVLYGSRNKNSVA | NASQRES | QQYHRLPLS [GP_Gen].
Read-out 0.76 (6 of 6 replicates; controls 0 of 18), from SLAYTQHFGQTGGKAVA | EVAMRCQ | QQYFRLPLG [En_Gibbs].
Read-out 1.38 (6 of 6 replicates; controls 3 of 18), from KLRQSTLYESRNKNSVA | KASTRLS | QQYHRLPLS [GP_HC].
Read-out 2.49 (1 of 6 replicates; controls 0 of 18), from RLWAYTQGFWRAMQNIA | DISYRVT | QQYGRLPLS [En_Gibbs].
Read-out 0.85 (6 of 6 replicates; controls 0 of 18), from KISMLINQTFEQSNNVA | EMVTRMN | QQYHRLPLS [En_Gen].
Read-out 0.68 (6 of 6 replicates; controls 0 of 18), from KLPNSWLYESRNSNSVA | HASKRMS | QQYHRLPLS [GP_Gibbs].
Read-out -0.26 (6 of 6 replicates; controls 0 of 18), from KISGSVMMLQRNKNSVA | DANTRES | QQYHRLPLS [GP_Gibbs].
Read-out -0.04 (6 of 6 replicates; controls 2 of 18), from KSSISYEYESRNKNSVA | EASTRES | QQYHRLPLM [GP_HC].
Read-out 0.11 (6 of 6 replicates; controls 0 of 18), from KLQQSWLYLSRNHNAVA | QASQRLS | QDYHRLPLS [GP_Gibbs].
Read-out -0.08 (6 of 6 replicates; controls 0 of 18), from KLSQSTLYEQRQCNSVA | NASQRES | QQYHRLPLS [GP_Gibbs].
Read-out 1.10 (6 of 6 replicates; controls 2 of 18), from KLMWSMQYESRNQNSVA | HASYRES | QQYHRLPLS [GP_Gibbs].
Read-out 0.33 (6 of 6 replicates; controls 1 of 18), from KLSQLFYKESRNKNNVA | EMTTRGS | QQYDRLPLS [En_HC].
Read-out 0.95 (6 of 6 replicates; controls 0 of 18), from KSSWSELYESRIKNSVA | KASTRES | QQYHRLPLS [Ctrl].
Read-out -0.08 (6 of 6 replicates; controls 3 of 18), from KLQQSDLYESRNKNSVA | EASQRES | QQYHRLPLS [GP_Gen].
Read-out 3.02 (3 of 6 replicates; controls 2 of 18), from RIMYEYDKNVDKYNAVA | QAHIRAQ | QFYNRLPLS [En_Gibbs].
Read-out nd (0 of 6 replicates; controls 0 of 18), from IVSQLMLWGMHVKNSIA | EAVTRLN | QQYDRLPLF [En_Gen].
Read-out 0.80 (6 of 6 replicates; controls 1 of 18), from NLNVSEDQWPLSKNAIA | QTTCRVL | QQYAHLPLS [En_Gibbs].
Read-out nd (0 of 6 replicates; controls 0 of 18), from MLSEVLHMLGVAKNSIA | DLVLRAN | QQYHRLPLM [En_Gen].
Read-out -0.33 (6 of 6 replicates; controls 0 of 18), from RVSSHLMAGGIHYNNIA | NTKVLEY | QQYMRLPLG [En_Gibbs].

The closing 7 entries, repeated:

CDR-L1	CDR-L2	CDR-L3	group	mean, log10 nM	detected	signal with controls
KSSWSELYESRIKNSVA	KASTRES	QQYHRLPLS	Ctrl	0.95	6/6	0/18
KLQQSDLYESRNKNSVA	EASQRES	QQYHRLPLS	GP_Gen	-0.08	6/6	3/18
RIMYEYDKNVDKYNAVA	QAHIRAQ	QFYNRLPLS	En_Gibbs	3.02	3/6	2/18
IVSQLMLWGMHVKNSIA	EAVTRLN	QQYDRLPLF	En_Gen	nd	0/6	0/18
NLNVSEDQWPLSKNAIA	QTTCRVL	QQYAHLPLS	En_Gibbs	0.80	6/6	1/18
MLSEVLHMLGVAKNSIA	DLVLRAN	QQYHRLPLM	En_Gen	nd	0/6	0/18
RVSSHLMAGGIHYNNIA	NTKVLEY	QQYMRLPLG	En_Gibbs	-0.33	6/6	0/18

Reference: Li et al. 2023, doi:10.1038/s41467-023-39022-2. File: FLAb, binding data.